According to patent US10570150B2, “6,7-trans cephalosporin-based probes for detecting bacteria expressing a metallo-beta-lactamase” (priority 2014, dated 2020):

Columns and labels:
E. coli with IMP-1 = settings: IMP-1-expressing bacteria, 10^4 to 10^6 c.f.u. (>=10^5 c.f.u. for (s)-CC-1, (s)-CC-5); probe 10 μM, 2 h
[1] = tested on: K. pneumoniae with VIM-27; settings: VIM-27-expressing bacteria, 10^4 to 10^6 c.f.u. (>=10^5 c.f.u. for (s)-CC-1, (s)-CC-5); probe 10 μM, 2 h
E. coli with NDM-1 = settings: NDM-1-expressing bacteria, 10^4 to 10^6 c.f.u. (>=10^5 c.f.u. for (s)-CC-1, (s)-CC-5); probe 10 μM, 2 h
K. pneumoniae with KPC-3 = experiment: Fluorescence response of probes to live KPC-3-expressing bacteria; settings: 10^4 to 10^6 c.f.u. (>=10^5 c.f.u. for (s)-CC-1, (s)-CC-5), probe 10 μM, 2 h
[2] = tested on: Eleven bacteria strains that produced carbapenemases or other clinically prevalent β-lactamases; experiment: Fluorescence response to the panel of eleven β-lactamase-producing live bacteria strains; settings: 10^4 to 10^6 c.f.u., probe 10 μM, 2 h

`CO[C@H]1C(=O)N2C(C(=O)O)=C(COc3ccc4ccc(=O)oc4c3)CS[C@H]12` [(s)-CC-1, (6R,7S)-7-methoxy-8-oxo-3-(((2-oxo-2H-chromen-7-yl)oxy)methyl)-5-thia-1-azabicyclo[4.2.0.]oct-2-ene-2-carboxylic Acid] was tested, and the “fluorescence response to live bacteria” value (E. coli with IMP-1) was “high fluorescence enhancement”, the “fluorescence response to live bacteria” value [1] was “high fluorescence enhancement” and the “fluorescence response to live bacteria” value (E. coli with NDM-1) was “high fluorescence enhancement”. The “fluorescence response to live bacteria” value (K. pneumoniae with KPC-3) was “high fluorescence enhancement”.
In the case of `CC(C)O[C@H]1C(=O)N2C(C(=O)O)=C(COc3ccc4ccc(=O)oc4c3)CS[C@H]12` [(s)-CC-3, (6R,7S)-7-isopropoxy-8-oxo-3-(((2-oxo-2H-chromen-7-yl)oxy)methyl)-5-thia-1-azabicyclo[4.2.0]oct-2-ene-2-carboxylic Acid], the “fluorescence response to live bacteria” value (E. coli with IMP-1) is reported as “intense fluorescence responses”, the “fluorescence response to live bacteria” value [1] is reported as “intense fluorescence responses” and the “fluorescence response to live bacteria” value (E. coli with NDM-1) is reported as “intense fluorescence responses”.
For `CC(C)(C)O[C@H]1C(=O)N2C(C(=O)O)=C(COc3ccc4ccc(=O)oc4c3)CS[C@H]12` [(s)-CC-4, (6R,7S)-7-(tert-butoxy)-8-oxo-3-(((2-oxo-2H-chromen-7-yl)oxy)methyl)-5-thia-1-azabicyclo[4.2.0]oct-2-ene-2-carboxylic Acid], the “fluorescence response to live bacteria” value (E. coli with IMP-1) was “specific preference for IMP-producing strains”.
With `O=C(O)C1=C(COc2ccc3ccc(=O)oc3c2)CS[C@@H]2[C@@H](OCc3ccccc3)C(=O)N12` [(s)-CC-5, (6R,7S)-7-(benzyloxy)-8-oxo-3-(((2-oxo-2H-chromen-7-yl)oxy)methyl)-5-thia-1-azabicyclo[4.2.0]oct-2-ene-2-carboxylic Acid] the “fluorescence response to live bacteria” value (E. coli with IMP-1) was “high fluorescence enhancement”, the “fluorescence response to live bacteria” value [1] was “high fluorescence enhancement” and the “fluorescence response to live bacteria” value (E. coli with NDM-1) was “high fluorescence enhancement”. The “fluorescence response to live bacteria” value (K. pneumoniae with KPC-3) was “high fluorescence enhancement”.
In the case of `Cc1ccc(S(=O)(=O)O[C@H]2C(=O)N3C(C(=O)O)=C(COc4ccc5ccc(=O)oc5c4)CS[C@H]23)cc1` [(s)-CC-6, (6R,7S)-8-oxo-3-(((2-oxo-2H-chromen-7-yl)oxy)methyl)-7-(tosyloxy)-5-thia-1-azabicyclo[4.2.0]oct-2-ene-2-carboxylic Acid], the “fluorescence response to live bacteria” value (E. coli with IMP-1) is reported as “intense fluorescence responses”, the “fluorescence response to live bacteria” value [1] is reported as “intense fluorescence responses” and the “fluorescence response to live bacteria” value (E. coli with NDM-1) is reported as “intense fluorescence responses”.
With `O=C(Cc1ccccc1)N[C@@H]1C(=O)N2C(C(=O)O)=C(COc3ccc4ccc(=O)oc4c3)CS[C@H]12` [CDC-1, reference compound] the “fluorescence response to all bacteria strains” value [2] was “consistently positive”.
